These are literature values, as cited in patent publication US20090054564A1, “Piperazine polyphosphate, methods for its preparation and its use” (Clariant International Ltd., priority 2007, published 2009).

The conditions of this data set: prior art WO-2005/037 806, purest product.

On to piperazine pyrophosphate, for which the “decomposition temperature (5% weight loss, WL)” value is 324 °C.
